Binding of CDR-mutated scFvs to a peptide of the spike HR2 region

Reference: Engelhart et al. 2022, doi:10.1038/s41597-022-01779-4. File: FLAb, binding data.

All variants were tested on one target, the spike HR2 peptide PDVDLGDISGINAS (SARS-CoV-2).

Ab-91 is the parent antibody, in scFv form: VL, then three GGGGS repeats, then VH. The light chain is unchanged in all variants.
VL: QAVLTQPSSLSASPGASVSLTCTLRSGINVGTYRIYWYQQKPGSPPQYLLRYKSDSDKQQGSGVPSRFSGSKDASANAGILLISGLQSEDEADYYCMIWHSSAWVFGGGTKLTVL
VH: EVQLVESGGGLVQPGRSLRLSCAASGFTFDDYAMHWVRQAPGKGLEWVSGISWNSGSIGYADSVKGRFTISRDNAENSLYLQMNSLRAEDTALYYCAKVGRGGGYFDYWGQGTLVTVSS

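Library AAYL51 holds single substitutions and randomly drawn double and triple substitutions in the CDRs. The assay is AlphaSeq: two haploid yeast populations carry antibody and antigen on their surface. The frequency of each diploid, read from paired DNA barcodes, reflects how well the two displayed proteins bind. Scores were corrected for input abundance and mapped to Kd with protein pairs of known affinity run in the same pool. There are three technical replicates.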

Each variant is given by its three heavy chain CDRs, as the data file delimits them; those of the parent are GFTFDDYAMH, GISWNSGSIGYADSVK, VGRGGGYFDY.
The read-out is the apparent dissociation constant on a log10 scale (nM): the lower, the stronger.
A mean of the replicates is given; it leaves out those without a signal.
"n.d." means that the variant was in the library but no mating with the target was seen in that replicate; the authors take this as a sign of poor binding, and no number exists.

CDR-H1	CDR-H2	CDR-H3	replicates, log10 nM	mean log10 Kd (nM)	empty controls
GFTFDDYAMH	GIEWNSGSIGGADSVK	VGRGGGYFDY	n.d. / 3.55 / n.d.	3.55	1 of 9 (3.78)
PFTFDDYAMH	FISWNSGSIGYADSVK	VGRGGGYFDY	n.d. / n.d. / n.d.	n.d.	0 of 9
GTTFDDYAMC	GICWNSGSIGYADSVK	VGRGGGYFDY	4.55 / 4.66 / n.d.	4.60	1 of 9 (2.71)
GWTFDDYAWH	GISWNSGSIKYADSVK	VGRGGGYFDY	5.18 / 6.51 / n.d.	5.84	3 of 9 (4.99)
GFTFDDYAMH	EISWNSGSIGYADSVK	VGRGGSYFDY	n.d. / 4.75 / n.d.	4.75	0 of 9
GFTHDDYAMH	GISWNTGSIGYACSVK	VGRGGGYFDY	4.21 / n.d. / n.d.	4.21	0 of 9
KFTFDDYAMH	GISWLSGSIGYADSVK	VGRGGGRFDY	n.d. / n.d. / n.d.	n.d.	0 of 9
GFTFDDYAMH	GISQNSGSIGYADSVK	AGRKGGYFDY	1.99 / 1.67 / 1.18	1.61	0 of 9
GFAFDRYAMH	GISWNSGSIGYADSVK	VGRGGGYFDY	0.78 / 0.65 / -0.01	0.47	6 of 9 (5.42)
GFTFDHYAMH	GIYWNSGSIGYADSVK	VGRGGTYFDY	n.d. / n.d. / n.d.	n.d.	0 of 9
GPTFDDYAMH	GISWNSGSIHYSDSVK	VGRGGGYFDY	n.d. / n.d. / n.d.	n.d.	0 of 9
GFTFDDYAMH	GISTNSGSIGYADSVK	VRRGGGYPDY	n.d. / n.d. / n.d.	n.d.	1 of 9 (2.81)
YFTFDDYAMH	GISWNIGSIGYADSVK	VGRGGGYFDF	4.60 / 6.98 / 5.38	5.65	5 of 9 (4.91)
GFTFDDYAMH	GKSWNSGSIGYADSVK	VGRGGHYNDY	n.d. / n.d. / n.d.	n.d.	0 of 9
GFTFDDYAMH	GISWCSGSIVYADSVK	LGRGGGYFDY	n.d. / n.d. / n.d.	n.d.	0 of 9
GFTFDVYAMH	GISWNSGSIMYADSVK	VGRGGGYFDH	3.75 / 4.43 / 4.14	4.11	3 of 9 (4.66)
GFTFDDYAMH	GISQNSGIIGYADSVK	VGRGGGYFHY	n.d. / n.d. / n.d.	n.d.	2 of 9 (4.56)
GFTFDDYAMH	GGSWHSGSIGYAQSVK	VGRGGGYFDY	n.d. / n.d. / n.d.	n.d.	0 of 9
GFTFDDYAMH	GISWTAGSIGYADSVK	VGRGGGYFDY	n.d. / n.d. / n.d.	n.d.	0 of 9
GFTFDDYAMH	GISWNSGSIGYADSVK	GARGGGLFDY	n.d. / 5.58 / 5.09	5.34	4 of 9 (4.57)
GFTFDDYAMH	GHSWNSGYIGWADSVK	VGRGGGYFDY	n.d. / n.d. / n.d.	n.d.	1 of 9 (3.40)
GFTFDDYAMH	GISWNSGLIGYADSVK	VGRGGGYFDY	4.65 / n.d. / n.d.	4.65	3 of 9 (4.01)
GFTCDDYAMH	GIVWNSGSIGYADSVK	VGRGGGYFFY	4.18 / 4.44 / n.d.	4.31	2 of 9 (3.41)
GFTFLDYAMH	QISWNSGSIGYADSVK	VGRGGGYFDH	4.88 / n.d. / n.d.	4.88	2 of 9 (4.56)
GFTFDDYAMH	QSSWNSGSIGYADSVK	VGRSGGYFDY	4.90 / n.d. / 5.58	5.24	2 of 9 (5.04)
GFTFDDYAMH	GINWNSGAIGYATSVK	VGRGGGYFDY	4.73 / 4.01 / n.d.	4.37	2 of 9 (4.59)
GFTFDDYAMH	GSSGNSGAIGYADSVK	VGRGGGYFDY	n.d. / 3.33 / n.d.	3.33	1 of 9 (3.83)
GFTFDDYAMK	GISWNKGSIGYADSVK	VGRGGGYFDY	n.d. / n.d. / n.d.	n.d.	0 of 9
GFTFDDYAMH	GISWNAGSIGYADSVK	VYRYGGYFDY	5.11 / 4.58 / 4.18	4.62	8 of 9 (5.20)
GFTFDDYCMH	GISWNSGSIGLDDSVK	VGRGGGYFDY	n.d. / 4.92 / n.d.	4.92	0 of 9
GFTFDDYAMH	GISWNSGSKGYVDSVK	VGRGTGYFDY	n.d. / n.d. / n.d.	n.d.	2 of 9 (5.10)
GFCFDDYAMH	GISWNSGSIGYADSVK	VSRHGGYFDY	2.81 / 3.17 / 3.16	3.04	3 of 9 (4.38)
GFTFDDYDMH	GISWNSGSIGDEDSVK	VGRGGGYFDY	n.d. / 5.28 / 4.06	4.67	1 of 9 (4.40)
GFTFDTYAMH	GISWNSGSIGYADSVK	VGRPGRYFDY	3.30 / 2.12 / 1.67	2.36	0 of 9
GFTFDDYAMH	GISWNSGSIGYAQSVK	VGRGGGYFDY	3.04 / 2.78 / 3.34	3.05	2 of 9 (4.00)
GFTFDDYAQH	GISWNSPSIGYAQSVK	VGRGGGYFDY	n.d. / n.d. / n.d.	n.d.	2 of 9 (4.84)
GFTFDDYASH	GISWNSGSIGYADSVK	VGRGCPYFDY	n.d. / n.d. / n.d.	n.d.	1 of 9 (3.66)
NFTFLDYAPH	GISWNSGSIGYADSVK	VGRGGGYFDY	n.d. / n.d. / 5.23	5.23	3 of 9 (5.45)
GFTFDDYAMH	GISWNSGVIGYADSEK	VGYGGGYFDY	4.42 / n.d. / n.d.	4.42	1 of 9 (4.99)
GFTFDDYAMH	GISWNSGSIGYADSVK	WGPGGPYFDY	n.d. / 6.05 / n.d.	6.05	6 of 9 (4.89)
GFTIDDYAMH	GISWNSGSIMRADSVK	VGRGGGYFDY	n.d. / n.d. / n.d.	n.d.	0 of 9
GFTFDDYAMC	GISWNSGVIGYADSVK	VGRGGGYFVY	n.d. / n.d. / 3.35	3.35	1 of 9 (4.26)
GFMFDDYAMH	GISWNSGSIGCADSVK	VGRGGGYFDF	3.73 / 4.42 / 4.20	4.12	6 of 9 (4.94)
DFTFDDYGMH	GISWNSGSIGYADSVK	VGRGGMYFDY	4.83 / 4.59 / 5.66	5.03	5 of 9 (4.72)
GFTFHDYAMH	GTSWNSGSIGYADIVK	VGRGGGYFDY	2.87 / 2.78 / n.d.	2.83	1 of 9 (4.70)
GWTFDDYAMH	GISWNSGSIDYADSKK	VGRGGGYFDY	n.d. / n.d. / 4.72	4.72	1 of 9 (3.33)

Background: pairings of library AAYL51 with three empty control strains gave a value in 21% of cases (median 4.54, 5th percentile 3.26). Values in that range, when seen in few replicates, are hard to tell from nonspecific mating. The control count says in how many pairings with the empty strains this scFv gave a signal, with their mean in brackets.
In this assay the parent's reference entry averaged 1.86; its copy inside this library read 0.88.